## scFv variants of Ab-91 (heavy chain) against a SARS-CoV-2 spike peptide

Reference: Engelhart et al. 2022, doi:10.1038/s41597-022-01779-4. File: FLAb, binding data.

Target: peptide PDVDLGDISGINAS, taken from heptad repeat 2 (HR2) of SARS-CoV-2 spike.

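AAYL51 was designed without a model: most single CDR substitutions and a random sample of double and triple ones. Affinity was read by AlphaSeq, a pooled yeast mating assay with surface-displayed partners. Pairs that bind mate more often; barcode pairs of the diploids are counted by sequencing. The ratio of observed to expected reads was calibrated, replicate by replicate, on BCL2-family standards whose Kd was known from biolayer interferometry. Mating was done three times.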

Parent: Ab-91, a human scFv built as VL, three GGGGS repeats, VH. Only the CDRs of the heavy chain vary.
VL: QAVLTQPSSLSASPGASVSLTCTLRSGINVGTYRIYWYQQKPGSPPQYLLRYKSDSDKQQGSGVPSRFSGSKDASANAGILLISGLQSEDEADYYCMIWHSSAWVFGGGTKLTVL
VH: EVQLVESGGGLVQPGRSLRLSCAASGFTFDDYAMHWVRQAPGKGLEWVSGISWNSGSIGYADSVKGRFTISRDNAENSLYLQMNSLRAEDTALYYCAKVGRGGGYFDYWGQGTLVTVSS

Positions count from residue 1 of the parent VH; G56T puts T in place of G. Values are log10 of the apparent Kd in nM; lower means stronger binding. The mean shown is taken over the replicates in which the pair was detected. An entry "ND" has no value in the source: the pair was not observed among the diploids in that replicate. This suggests poor binding but is not conclusive.

changes,log10 Kd (nM) by replicate,"mean, log10 nM",empty controls
G56T G59K Y108A,5.34 / 4.08 / 4.64,4.69,2 of 9 (4.86)
G50K W53Q Y108C,ND / ND / ND,ND,3 of 9 (4.00)
F27W H35V V64H,ND / ND / 3.86,3.86,0 of 9
Y32S Y60M V64E,4.63 / ND / ND,4.63,1 of 9 (3.47)
D30L G59R V64E,4.82 / ND / ND,4.82,0 of 9
M34T S57H,4.95 / ND / 3.54,4.25,1 of 9 (4.37)
F29S F106N,ND / ND / ND,ND,0 of 9
Y60R G100I Y108H,4.76 / ND / ND,4.76,3 of 9 (3.72)
D31N G56H Y108C,0.90 / 0.95 / 0.61,0.82,0 of 9
F27R Y32T Y60E,ND / ND / ND,ND,1 of 9 (4.17)
G26P G50I I58A,5.50 / ND / ND,5.50,1 of 9 (4.46)
S52Q V64M G104C,ND / ND / ND,ND,0 of 9
F29E D30T G102P,ND / ND / ND,ND,0 of 9
G26P G50Q G56V,ND / ND / ND,ND,0 of 9
F29C G50M D107I,ND / ND / ND,ND,0 of 9
Y32D I51W G102P,3.88 / ND / ND,3.88,2 of 9 (4.42)
A33V R101L G104H,ND / ND / ND,ND,0 of 9
Y60P S63K Y105M,ND / ND / ND,ND,2 of 9 (3.19)
H35G Y60G D62W,ND / ND / ND,ND,0 of 9
G26E G59Y,4.38 / ND / ND,4.38,1 of 9 (5.19)
H35L G50W Y60P,3.50 / ND / ND,3.50,1 of 9 (3.65)
S52K W53C Y105S,ND / ND / 5.21,5.21,7 of 9 (4.62)
Y60H R101N G103E,ND / ND / 3.10,3.10,1 of 9 (4.37)
F27I S57W G103M,5.98 / 5.24 / 3.74,4.99,7 of 9 (4.81)
H35M Y60E G102N,3.73 / ND / ND,3.73,4 of 9 (4.74)
S57P Y60L G103C,4.04 / ND / ND,4.04,2 of 9 (3.70)
Y32C N54E F106G,5.16 / ND / ND,5.16,0 of 9
Y32T R101D Y105K,3.09 / ND / ND,3.09,0 of 9
D30C I58P K65H,4.23 / 4.71 / 4.20,4.38,6 of 9 (5.16)
G26I S57N G59M,4.37 / ND / ND,4.37,1 of 9 (3.51)
H35N G102D F106L,3.00 / ND / 4.13,3.56,1 of 9 (4.09)
T28F S63L Y105D,5.87 / ND / 4.34,5.10,7 of 9 (5.27)
G50M A61C R101E,ND / ND / ND,ND,1 of 9 (4.46)
M34Y Y60V G104R,ND / ND / ND,ND,2 of 9 (5.83)
F27A G100K Y108S,3.91 / 5.00 / 4.95,4.62,6 of 9 (4.76)
G59N G102P D107Q,ND / ND / ND,ND,0 of 9
G26N Y32D M34V,4.11 / 4.35 / ND,4.23,6 of 9 (4.42)
F29A M34F G50E,6.05 / ND / ND,6.05,3 of 9 (4.67)

For reference, the parent read 1.86 as the reference entry and 0.88 as a member of this library. Nonspecific signal, from three strains lacking the peptide, appeared in 21% of pairings of library AAYL51, centred on 4.54 (5% of these signals below 3.26); values are not corrected for it. Also given: how often the same scFv was detected with the empty control strains, with their mean in brackets.